Laboratory results published in article PMC3317874, “Palmitoylation and membrane cholesterol stabilize μ-opioid receptor homodimerization and G protein coupling” (BMC Cell Biology, 2012).

Protein sequences, listed by entry. Tags and fused reporters are not part of them. Lines headed by an entry give the natural chain unless they say otherwise; changes in a name come on top.
UniProt P33535: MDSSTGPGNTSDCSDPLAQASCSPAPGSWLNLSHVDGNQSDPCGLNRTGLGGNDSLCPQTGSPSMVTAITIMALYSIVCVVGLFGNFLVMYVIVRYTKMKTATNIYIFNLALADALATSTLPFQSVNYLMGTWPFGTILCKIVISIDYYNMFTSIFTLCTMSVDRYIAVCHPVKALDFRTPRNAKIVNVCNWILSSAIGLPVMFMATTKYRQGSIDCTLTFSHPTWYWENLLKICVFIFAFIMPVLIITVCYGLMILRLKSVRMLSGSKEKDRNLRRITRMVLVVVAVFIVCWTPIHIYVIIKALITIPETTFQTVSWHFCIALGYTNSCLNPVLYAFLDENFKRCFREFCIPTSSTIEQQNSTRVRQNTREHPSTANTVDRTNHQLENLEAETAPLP

Target: OPRM1 (μ-opioid receptor; HEKOPRM1) (Rattus norvegicus, UniProt P33535)
Experiment: saturation binding, isolated cell membranes (Scatchard)
Conditions: labelled compound; only Bmax reported

[^3H]-diprenorphine
saturation binding, isolated cell membranes (Scatchard): [^3H]-diprenorphine saturation binding assay using isolated cell membranes
